Earlier results on 1 molecule are cited in article PMC3726058 (European journal of pharmacology, 2010).

Structures are written as SMILES.

The test system of the data set is σ1 subtype relative to σ2. The note with it: ref Yous et al., 2005.

As for `CCCc1ccc2c(c1)sc(=O)n2CCN1CCCCCC1` [SN56, 3-(2-(azepan-1-yl)ethyl)-6-propylbenzo[d]thiazol-2(3H)-one], the “selectivity for σ1 relative to σ2” value is reported as > 1,000 fold.
